Drawing on patent publication US20190177376A1 (NAVIGO PROTEINS, published 2019), this text covers Kd for 3 molecules.

For test [1], the target named is T1, IgG1 (column of Table 2: human IgG1-Fc or Cetuximab) (human).
T1 construct: It cannot be told whether the IgG1 column was measured with human IgG1-Fc or with Cetuximab; also called Cetuximab (IgG1)
Description: SPR, Biacore 3000, CM5 chip, 25 C, Langmuir 1:1.

The target of test [2] is T2, human IgG (human).
T2 construct: also called probably human IgG1, e.g. Cetuximab
Description: ELISA, IgG coated on plate, detection with Strep-Tactin-HRP.

Residue numbers refer to the chain shown, from its start.

B1: cs27 (SEQ ID NO: 30) (designed binder)
chain: IAAKFDEAQQAAFYEILHLPNLTEEQRNAFIQSLRDDPSVSLEVLGEAQKLNDSQAPKWSHPQFEK
notes: also called cs27-2; 1I/11A/35R/42L
On to B1, for which, in test [1], binding was put at a Kd of 3.64 nM.

B2: IB14 (SEQ ID NO: 14) (designed binder)
chain: PAAKHDKDQQSAFYEILHLPNLTEDQRSAFIQSLKDDPSVSKEILGEAKKLNDAQAPPWSHPQFEK
notes: also called parental IB14
The molecule B2 came in with a dissociation constant Kd in test [2] of 4.9 nM.

B3: cs14 (SEQ ID NO: 20) (designed binder)
chain: B2 chain with P1I, S11A, S28N, K35R, K42L
notes: also called cs14-3; 1I/11A/28N/35R/42L
Molecule B3 had a Kd in test [1] of 2.9 nM.
